From ChEMBL document CHEMBL5338738, “Discovery of Novel Sesquiterpene Lactone Derivatives as Potent PKM2 Activators for the Treatment of Ulcerative Colitis” (J Med Chem, 2023)

The chains behind the UniProt entries cited, without tags or fusion partners.
UniProt P14618, whole entry, looked up: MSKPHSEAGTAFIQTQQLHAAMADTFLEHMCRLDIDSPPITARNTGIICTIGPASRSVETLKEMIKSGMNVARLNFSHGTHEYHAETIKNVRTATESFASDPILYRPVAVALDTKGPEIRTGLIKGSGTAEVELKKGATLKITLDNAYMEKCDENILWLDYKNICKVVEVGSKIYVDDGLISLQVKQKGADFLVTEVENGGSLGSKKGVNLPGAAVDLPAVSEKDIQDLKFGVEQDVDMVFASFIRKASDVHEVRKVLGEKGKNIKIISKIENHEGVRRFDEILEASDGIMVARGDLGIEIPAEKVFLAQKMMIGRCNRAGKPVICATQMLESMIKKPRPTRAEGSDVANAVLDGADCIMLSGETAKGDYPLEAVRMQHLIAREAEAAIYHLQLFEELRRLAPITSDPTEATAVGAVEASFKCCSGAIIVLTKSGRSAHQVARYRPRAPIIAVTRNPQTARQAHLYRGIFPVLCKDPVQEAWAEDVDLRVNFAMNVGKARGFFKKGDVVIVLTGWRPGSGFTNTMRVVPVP

target: Pyruvate kinase PKM (Homo sapiens, UniProt P14618); experiment: Activation of PKM2 (unknown origin) at 3 uM incubated for 30 mins relative to control

Fold change (FC), > 2:
C=C1C(=O)O[C@@H]2/C=C(\C)CC/C=C(\C)CC[C@@H]12 [COSTUNOLIDE], C=C1C(=O)O[C@@H]2/C=C(\C)CC[C@H]3O[C@@]3(C)CC[C@@H]12, C=C1C(=O)O[C@@H]2/C=C(\C)CC/C=C(/CF)CC[C@@H]12, C=C1C(=O)O[C@@H]2C[C@@H](C)CC[C@H]3O[C@@]3(C)CC[C@@H]12, C=C1C(=O)O[C@@H]2/C=C(\C)CC/C=C(/C(=O)OCC)CC[C@@H]12, C=C1C(=O)O[C@@H]2/C=C(\C)CCC[C@H](C)CC[C@@H]12, C=C1C(=O)O[C@@H]2/C=C(\C)CC/C=C(/CO)CC[C@@H]12, C=C1C(=O)O[C@@H]2/C=C(\C)CC/C=C(/C(F)F)CC[C@@H]12, C=C1C(=O)O[C@H]2[C@H]1CC[C@@H](C)CCC[C@@]1(C)O[C@@H]21, C=C1C(=O)O[C@@H]2/C=C(\C)CC/C=C(/COC(=O)[C@@H](N)C(C)C)CC[C@@H]12, C=C1C(=O)O[C@@H]2/C=C(\C)CC[C@H]3C(F)(F)[C@@]3(C)CC[C@@H]12, C=C1C(=O)O[C@@H]2/C=C(\C)CC/C=C(/COC(=O)[C@@H](NC(=O)[C@@H](N)[C@@H](C)CC)C(C)C)CC[C@@H]12, C=C1C(=O)O[C@@H]2/C=C(\C)CC/C=C(/C(=O)OC)CC[C@@H]12, C=C1C(=O)O[C@H]2[C@H]1CC[C@@]1(C)[C@@H](CC[C@@]3(C)O[C@@H]23)C1(F)F
